From patent US7196119B2 (dated 2007) come the findings set out here.

Amino acid sequences for entries named in this document (tags omitted).
UniProt P03372, whole entry: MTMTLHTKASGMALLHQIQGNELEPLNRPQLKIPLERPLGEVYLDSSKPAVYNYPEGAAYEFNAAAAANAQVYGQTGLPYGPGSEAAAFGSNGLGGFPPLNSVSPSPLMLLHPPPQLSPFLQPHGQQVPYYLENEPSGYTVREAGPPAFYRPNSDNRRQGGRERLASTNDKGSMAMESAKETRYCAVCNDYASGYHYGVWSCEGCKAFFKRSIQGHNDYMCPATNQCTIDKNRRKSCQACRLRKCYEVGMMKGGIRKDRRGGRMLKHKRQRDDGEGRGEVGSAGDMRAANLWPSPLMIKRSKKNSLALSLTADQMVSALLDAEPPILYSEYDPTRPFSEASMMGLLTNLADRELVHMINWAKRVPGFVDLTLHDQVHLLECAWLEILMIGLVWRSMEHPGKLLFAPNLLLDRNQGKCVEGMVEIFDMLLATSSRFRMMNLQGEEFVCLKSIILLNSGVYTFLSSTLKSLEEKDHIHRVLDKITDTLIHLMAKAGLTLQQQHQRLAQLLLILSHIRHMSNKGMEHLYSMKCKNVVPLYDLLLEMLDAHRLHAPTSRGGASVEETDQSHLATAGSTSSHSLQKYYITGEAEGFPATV

This test deals with full length (ER)α (Homo sapiens, UniProt P03372). The following applies: percentage of the potency of 17β-estradiol (IC50 estradiol / IC50 ligand x 100).

On to `CC/C(=C(\c1ccccc1)c1ccc(/C=C/C(=O)O)cc1)c1ccccc1` [GW-5638], for which the “Relative binding affinity (ER)α” value worked out at 5%.
